Literature values as cited in PMC7937321 (Genes and Environment, 2021).

System: rodent
Conditions: chromosomal Aberration test, micronucleus test, transgenic rodent gene mutation assay; ref [48], [58]–[63]; cited from earlier work

## Nc1ccc([N+](=O)[O-])cc1N [4-Nitro-o-phenylenediamine]
  in vivo genotoxicity tests: negative
